Broadly, the IC50 is the midpoint of a concentration-inhibition curve.

Chains of the proteins cited; added tags and fusions are not shown.
UniProt O75874, whole entry R132H: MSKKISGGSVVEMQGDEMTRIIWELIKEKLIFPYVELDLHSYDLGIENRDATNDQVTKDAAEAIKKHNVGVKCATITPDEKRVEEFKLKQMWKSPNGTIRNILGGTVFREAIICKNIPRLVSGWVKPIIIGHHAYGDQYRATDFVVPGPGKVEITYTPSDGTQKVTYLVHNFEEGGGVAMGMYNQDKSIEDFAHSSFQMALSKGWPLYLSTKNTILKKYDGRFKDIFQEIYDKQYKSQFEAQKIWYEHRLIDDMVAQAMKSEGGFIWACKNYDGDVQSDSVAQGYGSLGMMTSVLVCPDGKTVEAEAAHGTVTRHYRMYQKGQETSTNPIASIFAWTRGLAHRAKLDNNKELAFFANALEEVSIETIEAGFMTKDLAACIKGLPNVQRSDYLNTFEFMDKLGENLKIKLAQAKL

This assay deals with R132H mutant IDH1 enzyme (Homo sapiens (Human), UniProt O75874, R132H). The assay is described as follows: R132H IDH1 Enzymatic Assay. Format: biochemical. Conditions: R132H mutant IDH1 enzyme 1.5 nM final; luminescence readout; read-out: IC50.

For `O=C(C1CCN(CC(F)(F)F)CC1)N1Cc2cccnc2Nc2ccc(N3C[C@@H]4C[C@H]3CO4)cc21` [Example 306, 8-[(1S,4S)-2-oxa-5-azabicyclo[2.2.1]hept-5-yl]-6-{[1-(2,2,2-trifluoroethyl)piperidin-4-yl]carbonyl}-6,11-dihydro-5H-pyrido[2,3-b][1,5]benzodiazepine], the IC50 came to 24 nM. In the case of `CO[C@H]1CN(c2ccc3c(c2)N(C(=O)[C@H]2CC[C@H](OC)CC2)Cc2cccnc2N3)CC[C@@H]1F` (single isomer, unassigned) [Example 215], the IC50 came to 266 nM.

Regarding `CO[C@@H]1C[C@H](C)[C@H](C(=O)N2Cc3cccnc3Nc3ccc(N4CCOCC4)cc32)C[C@@H]1C` [Example 107, 6-{[(1R,2S,4R,5S)-4-methoxy-2,5-dimethylcyclohexyl]car-bonyl}-8-morpholin-4-yl-6,11-dihydro-5H-pyrido[2,3-b][1,5]benzodiazepine], the concentration for half-maximal inhibition (IC50) is 31 nM.

With `COC1CCC(C(=O)N2Cc3cccnc3Nc3ccc(C[C@H]4CCOC4)cc32)CC1` (single isomer, unassigned) [Example 420], the IC50 worked out at 93 nM.

On to `CO[C@H]1CC[C@H](C(=O)N2Cc3cccnc3Nc3ccc(N4CCn5nc(C)nc5C4)cc32)CC1` [Example 272, 6-[(trans-4-methoxycyclohexyl)carbonyl]-8-(2-methyl-5,6-dihydro[1,2,4]triazolo[1,5-a]pyrazin-7(8H)-yl)-6,11-dihydro-5H-pyrido[2,3-b][1,5]benzodiazepine], for which the 50% inhibitory concentration (IC50) worked out at 546 nM.

For `CC(C)O[C@H]1CC[C@H](C(=O)N2Cc3cccnc3Nc3ccc(N4C[C@@H]5CC[C@H]4CO5)cc32)OC1` (single isomer, unassigned) [Example 40], the IC50 came to 17 nM. Under `CC(C)O[C@@H]1CC[C@@H](C(=O)N2Cc3cccnc3Nc3ccc(N4CCOCC4)cc32)C1` [Example 64, 6-{[(1R,3R)-3-(1-methylethoxy)cyclopent-yl]carbonyl}-8-morpholin-4-yl-6,11-dihydro-5H-pyrido[2,3-b][1,5]benzodiazepine] stands 154 nM; under `CCOC(C)c1ccc2c(c1)N(C(=O)[C@H]1CC[C@H](OC(C)C)CC1)Cc1cccnc1N2` (stereo partly drawn) [Example 543, 8-(1-ethoxyethyl)-6-{[trans-4-(1-methylethoxy)cyclohexyl]carbonyl}-6,11-dihydro-5H-pyrido[2,3-b][1,5]benzodiazepine], 21 nM; under `CCO[C@H]1CC[C@H](C(=O)N2Cc3cccnc3Nc3ccc(N4C[C@@H]5CC[C@H]4CO5)cc32)CC1(F)F` (single isomer, unassigned) [Example 324], 18 nM. For `CC(C)O[C@H]1CC[C@H](C(=O)N2Cc3cccnc3Nc3ccc(C4(C#N)CC4)cc32)CC1` [Example 137, 1-(6-{[trans-4-(1-methylethoxy)cyclohexyl]-carbonyl}-6,11-dihydro-5H-pyrido[2,3-b][1,5]benzodiazepin-8-yl)cyclopropanecarbo-nitrile] the value was 15 nM. Turning to `CO[C@H]1CC[C@@H](C(=O)N2Cc3cccnc3Nc3ccc(N4CCn5cccc5C4)cc32)CC1` [Example 274, 8-(3,4-dihydropyrrolo[1,2-a]pyrazin-2(1H)-yl)-6-[(cis-4-methoxycyclohexyl)carbonyl]-6,11-dihydro-5H-pyrido[2,3-b][1,5]benzodiazepine], the IC50 worked out at 224 nM.

In the case of `CO[C@H]1CC[C@H](C(=O)N2Cc3cccnc3Nc3ccc(N4CCC(F)(F)C4)cc32)CC1` [Example 279, 8-(3,3-difluoropyrrolidin-1-yl)-6-[(trans-4-methoxycyclohexyl)carbonyl]-6,11-dihydro-5H-pyrido[2,3-b][1,5]benzodiazepine], the half-inhibitory concentration (IC50) stood at 231 nM. Under `O=C([C@H]1CC[C@@H](NCC(F)(F)F)CC1)N1Cc2cccnc2Nc2ccc(N3CCOCC3)cc21` [Example 438, cis-4-[(8-morpholin-4-yl-5,11-dihydro-6H-pyrido[2,3-b][1,5]benzodiazepin-6-yl)carbonyl]-N-(2,2,2-trifluoroethyl)cyclohexanamine] stands 890 nM; under `CO[C@H]1CC[C@H](C(=O)N2Cc3cccnc3Nc3ccc(-c4ccncc4F)cc32)CC1` [Example 408, 8-(3-fluoropyridin-4-yl)-6-[(trans-4-methoxycyclohexyl)carbonyl]-6,11-dihydro-5H-pyrido[2,3-b][1,5]benzodiazepine], 107 nM. In the case of `CC[C@H](N[C@H]1CC[C@@H](C(=O)N2Cc3cccnc3Nc3ccc(N4CCOCC4)cc32)CC1)C(F)(F)F` [Example 450, cis-4-[(8-morpholin-4-yl-5,11-dihydro-6H-pyrido[2,3-b][1,5]benzodiazepin-6-yl)carbonyl]-N-[(1S)-1-(trifluoromethyl)propyl]-cyclohexanamine], the 50% inhibitory concentration (IC50) turned out to be 221 nM. As to `CO[C@H]1CO[C@](C)(c2ccc3c(c2)N(C(=O)[C@H]2CC[C@H](OC(C)C)CO2)Cc2cccnc2N3)C1` (single isomer, unassigned) [Example 143], the IC50 was found to be 82 nM. For `CO[C@H](C1CC1)[C@H]1CC[C@@H](C(=O)N2Cc3cccnc3Nc3ccc(N4CCOCC4)cc32)CC1` [Example 167, 6-({Cis-4-[(R)-cyclopropyl(methoxy)methyl]cyclohexyl}carbonyl)-8-morpholin-4-yl-6,11-dihydro-5H-pyrido[2,3-b][1,5]benzodiazepine] the value was 167 nM.

Consider `C=CC1CCC(C(=O)N2Cc3cccnc3Nc3ccc(N4CCOCC4)cc32)CC1` (centres unmarked) [Example 127, 6-[(4-ethenylcyclohexyl)carbon-yl]-8-morpholin-4-yl-6,11-dihydro-5H-pyrido[2,3-b][1,5]benzodiazepine], for which the IC50 amounted to 40 nM.

On to `O=C([C@H]1CC[C@@H](O[C@H]2CC2(F)F)CC1)N1Cc2cccnc2Nc2ccc(N3CCOCC3)cc21` (single isomer, unassigned) [Example 104], for which the concentration for half-maximal inhibition (IC50) worked out at 75 nM. In the case of `COCC(OC)c1ccc2c(c1)N(C(=O)[C@H]1CC[C@H](OC(C)C)CO1)Cc1cccnc1N2` (stereo partly drawn) [Example 18, (8-(1,2-dimethoxyethyl)-5,11-dihydro-6H-benzo[b]pyrido[2,3-e][1,4]diazepin-6-yl)((2R,5S)-5-isopropoxytetrahydro-2H-pyran-2-yl)methanone], the IC50 was determined as 54 nM. With `C[C@H]1CC(F)(F)CCC1C(=O)N1Cc2cccnc2Nc2ccc(N3CCC(C#N)CC3)cc21` (mixture of isomers) [Example 176, Racemic trans 1-{6-[(4,4-difluoro-2-methylcyclohexyl)carbonyl]-6,11-dihydro-5H-pyrido[2,3-b][1,5]benzodiazepin-8-yl}piperidine-4-carbonitrile], the 50% inhibitory concentration (IC50) is 286 nM. For `COC1CN(c2ccc3c(c2)N(C(=O)[C@H]2CC[C@H](OC)CC2)Cc2cccnc2N3)CCC1(F)F` (stereo partly drawn) [Example 212, 8-(4,4-difluoro-3-methoxypiperidin-1-yl)-6-[(trans-4-methoxycyclohexyl)carbonyl]-6,11-dihydro-5H-pyrido[2,3-b][1,5]benzodiazepine] the value was 286 nM.

On to `O=C([C@H]1CC[C@@H](OC2CC2)CC1)N1Cc2cccnc2Nc2ccc(N3CCOCC3)cc21` [Example 91, 6-{[cis-4-(cyclopropyloxy)cyclo-hexyl]carbonyl}-8-morpholin-4-yl-6,11-dihydro-5H-pyrido[2,3-b][1,5]benzodiazepine], for which the half-maximal inhibitory concentration (IC50) worked out at 126 nM. On to `CO[C@H]1CC[C@H](C(=O)N2Cc3cccnc3Nc3ccc(-c4cnc(C)n4C)cc32)CC1` [Example 186, 8-(1,2-dimethyl-1H-imidazol-5-yl)-6-[(trans-4-methoxycyclohexyl)carbonyl]-6,11-dihydro-5H-pyrido[2,3-b][1,5]benzodiazepine], for which the IC50 was found to be 617 nM. Under `CC(C)(C)O[C@H]1CC[C@H](C(=O)N2Cc3cccnc3Nc3ccc(N4C[C@@H]5CC[C@H]4CO5)cc32)OC1` (single isomer, unassigned) [Example 329] stands 12 nM; under `CO[C@H]1CC[C@H](C(=O)N2Cc3cccnc3Nc3ccc(N4CCC(F)CC4)cc32)CC1` [Example 221, 8-(4-fluoropiperidin-1-yl)-6-[(trans-4-methoxycyclohexyl)carbonyl]-6,11-dihydro-5H-pyrido[2,3-b][1,5]benzodiazepine], 440 nM. Turning to `C[C@H](N(C)[C@H]1CC[C@@H](C(=O)N2Cc3cccnc3Nc3ccc(C4CCOCC4)cc32)CC1)C(F)(F)F` [Example 507, cis-N-methyl-4-{[8-(tetrahydro-2H-pyran-4-yl)-5,11-dihydro-6H-pyrido[2,3-b][1,5]benzodiazepin-6-yl]carbonyl}-N-[(1S)-2,2,2-trifluoro-1-methylethyl]cyclohexanamine], the IC50 turned out to be 43 nM. As to `O=C(C1CCN(CC(F)(F)F)CC1)N1Cc2cccnc2Nc2ccc(C3=CCOCC3)cc21` [Example 516, 8-(3,6-dihydro-2H-pyran-4-yl)-6-{[1-(2,2,2-trifluoroethyl}piperidin-4-yl]carbonyl}-6,11-dihydro-5H-pyrido[2,3-b][1,5]benzodiazepine], the half-inhibitory concentration (IC50) is 8 nM. For `CCO[C@H]1CC[C@H](C(=O)N2Cc3cccnc3Nc3ccc(N4C[C@@H]5CC[C@H]4CO5)cc32)OC1` (single isomer, unassigned) [Example 334], the IC50 amounted to 43 nM. `CCO[C@H]1CC[C@@H](C(=O)N2Cc3cccnc3Nc3ccc(N4C[C@@H]5C[C@H]4CO5)cc32)CC1` [Example 311, 6-[(cis-4-ethoxycyclohexyl)carbonyl]-8-[(1S,4S)-2-oxa-5-azabicyclo[2.2.1]hept-5-yl]-6,11-dihydro-5H-pyrido[2,3-b][1,5]benzodiazepine]: the 50% inhibitory concentration (IC50) amounted to 175 nM. On to `C[C@@H]1C[C@H](C)C[C@@H](C(=O)N2Cc3cccnc3Nc3ccc(N4CCOCC4)cc32)C1` [Example 121, 6-{[(1r,3R,5S)-3,5-dimethylcyclohexyl]car-bonyl}-8-morpholin-4-yl-6,11-dihydro-5H-pyrido[2,3-b][1,5]benzodiazepine], for which the IC50 came to 153 nM.

As to `O=C([C@H]1CC[C@H](C(F)(F)F)CC1)N1Cc2cccnc2Nc2ccccc21` [Example 67, 6-{[trans-4-(trifluoromethyl)cyclohex-yl]carbonyl}-6,11-dihydro-5H-pyrido[2,3-b][1,5]benzodiazepine], the concentration for half-maximal inhibition (IC50) came to 354 nM.

These data come from US10442819B2, “Tricyclic compounds as inhibitors of mutant IDH enzymes” (Merck Sharp & Dohme Corp., priority 2014, dated 2019).
